Laboratory results taken from US20160024092A1, “INTRAVENOUS FORMULATIONS OF NEUROKININ-1 ANTAGONISTS” (OPKO Health, Inc., priority 2009, published 2016).

Test: Blood levels and half life of Compound 1 after intravenous administration
Conditions: in vivo

C[C@@H](OC[C@@]1(c2ccccc2)CC[C@]2(CCC(=O)N2)CN1)c1cc(C(F)(F)F)cc(C(F)(F)F)c1 [Compound 1, (5S,8S)-8-[{(1R)-1-(3,5-Bis-(trifluoromethyl)phenyl)-ethoxy}-methyl]-8-phenyl-1,7-diazaspiro[4.5]decan-2-one]
half-life: 180 h
